## Yeast mating assay B: variants of the scFv Ab-14

Reference: Li et al. 2023, doi:10.1038/s41467-023-39022-2. File: FLAb, binding data.

Target: peptide PDVDLGDISGINAS, taken from heptad repeat 2 (HR2) of SARS-CoV-2 spike.

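The starting antibody came from a phage panning campaign against this peptide. This is the validation round: designs drawn from the data on random variants, tested in the same kind of assay. Group labels follow the data file (Ctrl: baseline library sampled from a position-specific scoring matrix, with some repeated check sequences; Rand: our label for a block that the file lists under HC and that is probably the random mutants of the ten best first-round binders; GP: Gaussian process model; GPLM: also part of the Gaussian process libraries; HC: hill climbing; Gen: genetic algorithm; Gibbs: Gibbs sampling; a sequence that several methods proposed may carry one label only). Affinity was read by AlphaSeq, a pooled yeast mating assay with surface-displayed partners. Pairs that bind mate more often; barcode pairs of the diploids are counted by sequencing. Each replicate has its own calibration line, from reference interactions of the BCL2 family. Each pool was mated in six replicate cultures.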

Parent: Ab-14, a human scFv built as VH, a 15-residue (Gly4Ser)3 linker, VL. Only the CDRs of the heavy chain vary.
VH: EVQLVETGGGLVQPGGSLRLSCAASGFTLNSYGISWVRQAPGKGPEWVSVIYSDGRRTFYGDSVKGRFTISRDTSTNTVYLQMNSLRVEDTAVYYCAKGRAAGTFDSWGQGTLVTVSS
VL: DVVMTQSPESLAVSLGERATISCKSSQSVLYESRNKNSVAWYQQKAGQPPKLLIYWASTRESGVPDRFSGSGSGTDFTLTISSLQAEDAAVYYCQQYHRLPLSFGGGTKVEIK

Each variant is given by its three heavy chain CDRs, as the data file delimits them; those of the parent are GFTLNSYGIS, VIYSDGRRTFYGDSVK, GRAAGTFDS. This list holds designs with at most six substitutions. The Kd shown is the geometric mean over detected replicates; a lower Kd is a better binder. An entry "no signal" has no value in the source: the pair was not observed among the diploids in any replicate. This suggests poor binding but is not conclusive. Values of this round are not directly comparable with the first-round values of the same sequences.

CDR-H1	CDR-H2	CDR-H3	group	apparent Kd	detected
GFALNSYGIS	VIYSDGRRTFYDDSVK	GQEAGTFDS	GP_HC	no signal	0 of 6
GFTLNSYGIS	VIYADGRRTFYGDSVK	GEAAGTFKS	GPLM_Gen	850 pM	6 of 6
GFALDSYGIS	VIYSDGRRTFYGDSVK	GRAADTFDS	Ctrl	no signal	0 of 6
GFNLNSYGIS	VIYSDGRRTFYQDKVK	GRTAGTFDS	GP_Gibbs	15 nM	6 of 6
GFTLNEYGIS	VIYSDGRRTQYTDSVK	GRFAGTFDS	Rand	no signal	0 of 6
GFSLNSYGIS	VIYSDGRRTFYGDSVK	GHQAGTFDS	GP_Gen	no signal	0 of 6
GFELNSYGIS	VIYSDGRRTFYQDSVK	GKAAGTFDS	GP_Gen	6.8 nM	6 of 6
GFTLNSYGIS	VIYRDGRRTFYSDSVK	GRAALTFDS	Ctrl	no signal	0 of 6
GFTLNNYGIS	VIYSDGRRTFYGDSVK	GRAAVIFDS	Ctrl	no signal	0 of 6
GFSLNSYGIS	VIYSDGRRTFYTDDVK	GEAAGTFDS	GPLM_Gibbs	2.3 nM	6 of 6
GFDLNSYGIS	VIYSDGRRTFYIDSVK	GRAAGTFDA	GP_HC	2.4 nM	6 of 6
GFTLNSYGIS	VIYSDGRRTFYSDSVK	GKAQGTFDA	Ctrl	no signal	0 of 6
GFTLNSYGIS	VIYSDGRRTFYGDSVK	CRAAGTFES	Ctrl	no signal	0 of 6
RFTLNDYGIS	VIYSDGLRTFYGDSVK	GRAAGTFDS	Ctrl	no signal	0 of 6
GFPLNDYGIS	VIYADGRRTFYGDSVK	GKAAGTFDS	Ctrl	610 pM	6 of 6
GKTLNEYGIS	VIYSDGRRTFYGDSVK	GRAAVTFDV	GP_HC	no signal	0 of 6
GFALDSYGIS	VIYSDGRRTFYSDSVK	GRAAGTFDS	Ctrl	1.3 nM	6 of 6
GFQLNDYGIS	VIYSDGRRTFYKDQVK	GRTAGTFDS	GP_Gibbs	15 nM	5 of 6
GFTLNSYGIS	VIYSDGRRTFYGDEFK	GRAAGTFDS	Ctrl	85 nM	6 of 6
GFTLNSYGIS	VIYSDGKRTFYGDDVK	GRNAGTFDS	GP_Gibbs	19 nM	6 of 6
GFSLESYGIS	VIYSDGKRTFYGDSVK	GRTAGTFDS	GP_Gibbs	1.8 nM	6 of 6
GFKLNDYGIS	VIYSDGRRTFYIDSVK	GRLAGTFDS	GP_HC	14 nM	5 of 6
GFDLNSYGIS	VIYSDGRRTFYGDMVK	GRTAGTFDD	GP_Gibbs	2.0 nM	6 of 6
GESLNSYGIS	VIYSDGRRTFYGDSVK	LKAAGTFDS	Ctrl	no signal	0 of 6
GFQLNSYGIS	VIYSDGRRTYYGDSVK	GRAAGTFDS	GP_HC	100 nM	6 of 6
GFNLNEYGIS	VIYSDGRRTFYGDSVK	GQAAGTFDS	GPLM_Gibbs	1.3 nM	6 of 6
GFTLNSYGIS	VIYSDGWRTFYADSVK	GEEAGTFKS	Ctrl	13 nM	3 of 6
GFTLNSYGMS	VIYSDGRRTSYSDSVK	GRAAGTFDS	Ctrl	320 nM	4 of 6
GRTLNSYGIS	VIYADGERTFYGDSNK	GRAAGTFDS	Ctrl	no signal	0 of 6
GFSLNSYGIS	VIYSDGRRTFYGDSVK	GEAAGTFDL	GPLM_Gen	3.6 nM	6 of 6
MFDLNSYGIS	VIYSDGRRTFYGDSVK	GKNAGTFDS	GP_Gibbs	46 nM	5 of 6
GFDLNSYGIS	VIYSDGKRTFYSDSVK	GQAAGTFDS	GP_Gen	1.9 nM	6 of 6
GETLNDYGIS	VIYADGRRTFYLDSVK	GRAAGSFDS	Ctrl	8.3 nM	5 of 6
GFDLNSYGIS	VIYSDGRRTFYGDSVK	GRAALWFNS	Rand	21 nM	1 of 6
GFSLNMYGIS	VIYSDGRRTFYGDSVK	GEAAGTFDS	GPLM_Gen	8.5 nM	6 of 6
KFDLNSYGIS	VIYSDGRRTFYADSVK	GKTAGTFDS	GP_Gen	790 pM	6 of 6
GFDLNSYGIS	VIYSDGRRTAYGDMVK	GRAAGTFDS	GP_Gen	2.4 nM	4 of 6
GFTLNEYGIS	VIYSDGRRTFYGDSVK	GRYAGTFSS	GP_HC	830 nM	1 of 6
GFTLNSYGIS	VIYSDGRRTFYSDSVK	GRMGGTFDT	GP_HC	5.6 nM	6 of 6
GFDLNSYGIS	VIYSDGRRTFYVDEVK	GRQAGTFDS	GP_Gen	1.4 nM	6 of 6
GFALNSYGIS	VIYSDGRRTFYMDSVK	GRAYGTFDQ	Ctrl	no signal	0 of 6
GFTINSYGIS	VIYSDGRRTFYGDSVK	GEAAGTFDS	Ctrl	220 nM	4 of 6
GFDLNSYGIS	VIYSDGRRTFYGDKVK	GQTAGTFDS	GP_Gen	990 pM	6 of 6
KFELNSYGIS	VIYSDGRRTFYGDSVK	GQTAGTFDS	GP_Gen	360 nM	2 of 6
GFSLNSYGIS	VIYSDGRRTFYGDSVK	GKLAGTFDT	GP_Gen	15 nM	6 of 6
GFTLNSYGIS	VIYSDGRRTRYSDFVK	GKAAGTFDS	Ctrl	540 nM	2 of 6
GFTLNEYGIS	VIYSDGRRTFYGDSVK	GRAAGTPDS	Ctrl	1.4 nM	6 of 6
GFTLNSYGIS	VIYSDGRRTFYQDSVK	GEAAGTFDT	GPLM_Gen	no signal	0 of 6
GFSLNSYGIS	VIYSDGRRTFYVDDVK	GRLAGTFDS	GP_Gibbs	16 nM	1 of 6
GFTPLSYGIS	VIYSDGRRTFYGDSVK	GRAAGTFDS	Ctrl	no signal	0 of 6
GFTLNQYGIS	VIYSDGRRTFYADSVK	GRNAGTFDS	GPLM_HC	670 pM	6 of 6
GFELNSYGIS	VIYSDGRRTFYGDKVK	GKTAGTFDS	GP_Gibbs	16 nM	6 of 6
GFTLESYGIS	VIYSDGRRTFYGDSVK	GWTAGTFDS	GP_Gen	82 nM	1 of 6
GFFLNEYGIS	VIYSDGRRTQYIDSVK	GRAAGTFDS	GP_HC	50 nM	6 of 6
GFDLNSYGIS	VIYSDGRRTFYGDSVK	GRTAGTFDK	GPLM_Gibbs	730 pM	6 of 6
GFSLNQYGIS	VIYSDGRRTFYADSVK	GRTAGTFDS	GPLM_Gen	510 pM	6 of 6
DFTLNSYGIS	VIYSDGRRTFYGDSYK	GDAAGTFDS	Ctrl	no signal	0 of 6
GFTLNDYGIS	VIYSDGRRTQYIDSVK	GRPAGTEDS	Rand	no signal	0 of 6
GFTLLSYGIS	VIYSDGQRTFYIDSVK	GRAAGTFDT	Ctrl	65 nM	3 of 6
GFDLNSYGIS	VIYSDGRRTFYGDSVK	GQEAGTFDD	GP_Gibbs	5.7 nM	6 of 6
GFTLNSYGIS	VIYSDGRRTFYSDSVK	GNEAGTFDT	GP_Gen	1.3 nM	6 of 6
KFTLNSYGIS	VIYSDGRRTFYKDSVK	GQTAGTFDS	GP_HC	69 nM	2 of 6
GFALNQYGIS	VIYSDGRRTFYADSVK	GRAAGTFDS	GPLM_HC	no signal	0 of 6
GFELNNYGIS	VIYSDGRRTFYSDQVK	GQAAGTFDS	GP_Gibbs	6.4 nM	6 of 6
GFHLNNYGIS	VIYSDGRRTFYDDSVK	GQLAGTFDS	GP_HC	8.8 nM	6 of 6

Excerpt, the first 8 entries:

CDR-H1	CDR-H2	CDR-H3	group	apparent Kd	detected
GFALNSYGIS	VIYSDGRRTFYDDSVK	GQEAGTFDS	GP_HC	no signal	0 of 6
GFTLNSYGIS	VIYADGRRTFYGDSVK	GEAAGTFKS	GPLM_Gen	850 pM	6 of 6
GFALDSYGIS	VIYSDGRRTFYGDSVK	GRAADTFDS	Ctrl	no signal	0 of 6
GFNLNSYGIS	VIYSDGRRTFYQDKVK	GRTAGTFDS	GP_Gibbs	15 nM	6 of 6
GFTLNEYGIS	VIYSDGRRTQYTDSVK	GRFAGTFDS	Rand	no signal	0 of 6
GFSLNSYGIS	VIYSDGRRTFYGDSVK	GHQAGTFDS	GP_Gen	no signal	0 of 6
GFELNSYGIS	VIYSDGRRTFYQDSVK	GKAAGTFDS	GP_Gen	6.8 nM	6 of 6
GFTLNSYGIS	VIYRDGRRTFYSDSVK	GRAALTFDS	Ctrl	no signal	0 of 6

Background: pairings of all heavy chain designs with three empty control strains gave a value in 1% of cases (median 120 nM, 5th percentile 7.0 nM). Values in that range, when seen in few replicates, are hard to tell from nonspecific mating. The parent sequence was in this pool as ten entries: three were never detected, three once, and four in most replicates, with averages from 2.2 nM to 240 nM. The authors' rule: three or more of the six replicates give a measured affinity, fewer mean a poor binder.